## OPERA 2.9 data: vapor pressure values

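The numbers are reported measurements, compiled and curated for the OPERA QSAR suite. A listed value is a point estimate from one report or more. Method and conditions are not stated for these values. The measured form (salt, isomer or mixture) is not always the one drawn. Some upstream entries may be estimates or bounds without being marked so.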

Vapor pressures (log10 mmHg) refer to near room temperature, 15 to 30 °C; higher is more volatile.
Cells with "–" have no entry in this list.
The databases behind each value are named after "via".

compound | name | vapor pressure (log10 mmHg) | via
CCCCCCCCC(CCCCCC)C(=O)OCC(=O)Nc1ccc(-c2nn3nc(C(C)(C)C)c(Cl)c3[nH]2)cc1 (stereo unspecified) | – | -4.347 | eChemPortal
CC1C(C)(C)C2=C(C(=O)CCC2)C1(C)C (stereo unspecified) | Cashmeran | -1.667 | eChemPortal
CCCCCCCCCCCC(=O)OCC(C)(C)C=O | 2,2-Dimethyl-3-oxopropyl dodecanoate | -4.339 | eChemPortal
C=CC(=O)OCCOCCOCC | 2-(2-Ethoxyethoxy)ethyl prop-2-enoate | -1.523 | eChemPortal
CC1(C)Nc2cccc3cccc(c23)N1 | 2,2-Dimethyl-2,3-dihydroperimidine | -5.084 | eChemPortal
CCCc1ccc(-c2ccc(OCC)c(F)c2F)cc1 | – | -5.202 | eChemPortal
CCc1cc(CC)c2sc3ccccc3c(=O)c2c1 | 9H-Thioxanthen-9-one, 2,4-diethyl- | -6.778 | eChemPortal
COC(=O)CCCCCCCCCCCCCCCCC(=O)OC | Dimethyl octadecanedioate | -5.046 | eChemPortal
O=C(OCCOCCOC(=O)c1ccccc1)c1ccccc1 | Diethylene glycol dibenzoate | -6.87 | eChemPortal
CCC(C)=NO[Si](ON=C(C)CC)(ON=C(C)CC)ON=C(C)CC | 2-Butanone, O,O',O'',O'''-silanetetrayltetraoxime | -4.905 | eChemPortal
COCc1c(C)cccc1N | 2-(Methoxymethyl)-3-methyl-aniline | -1.888 | eChemPortal
NC1CCCc2ccccc21 (stereo unspecified) | 1-Aminotetralin | -1.663 | eChemPortal
CC(O)COC(C)(C)C (stereo unspecified) | 1-tert-Butoxy-2-propanol | 0.681 | PubChem
CCOC(C)N1CC(C)OC1=O (stereo unspecified) | 2-Oxazolidinone, 3-(1-ethoxyethyl)-5-methyl- | -2.058 | eChemPortal
CC1=CCC(C(C)CC=O)CC1 (stereo in doubt) | – | -0.512 | eChemPortal
NCCCCN | Putrescine | 0.523 | eChemPortal
CC(=O)OC1CC2CC1C1CCCC21 (stereo unspecified) | Octahydro-4,7-methano-1H-inden-5-yl acetate | -1.779 | eChemPortal
Brc1cccc(Br)c1Oc1ccccc1 | Benzene, 1,3-dibromo-2-phenoxy- | -3.684 | OCHEM
C=CC(=O)OCCCCCCCCCCCCCCCCCC | Stearyl acrylate | -5.37 | eChemPortal
Cc1cc(OI)c(C(C)C)cc1-c1cc(C(C)C)c(OI)cc1C | Thymol iodide | -3.881 | eChemPortal
NCCCOCCCCOCCCN | 1-Propanamine, 3,3'-[1,4-butanediylbis(oxy)]bis- | -3.191 | eChemPortal
CN(C)Cc1cc(CN(C)C)c(O)c(CN(C)C)c1 | 2,4,6-Tris(dimethylaminomethyl)phenol | -1.25 | eChemPortal
CCCOCOCCC | Propane, 1,1'-[methylenebis(oxy)]bis- | 1.176 | eChemPortal
COc1cc(C=CC(=O)O)cc(OC)c1OC | 2-Propenoic acid, 3-(3,4,5-trimethoxyphenyl)- | -7.889 | eChemPortal
Nc1ccc(N)c([N+](=O)[O-])c1 | 2-Nitro-1,4-phenylenediamine | -4.252 | OCHEM
CO[Si](CCCNC(=O)OCCCCCCOC(=O)NCCC[Si](OC)(OC)OC)(OC)OC | – | -4.907 | eChemPortal
CC1=CCC2C(C1)C2(C)C (stereo unspecified) | 3-Carene | 0.368 | eChemPortal
CCC(C)N(C(=O)SCc1ccccc1)C(C)CC (stereo unspecified) | Tiocarbazil | -3.156 | OCHEM
CC(CC(C)(C)C1CCCCC1)C1CCCCC1 (stereo unspecified) | Cyclohexane, 1,1'-(1,1,3-trimethyl-1,3-propanediyl)bis- | -3.236 | eChemPortal
O=C1NCCN1 | Ethylene urea | -4.777 | eChemPortal
O=P1(Cc2ccccc2)OCC2(CO1)COP(=O)(Cc1ccccc1)OC2 (stereo unspecified) | – | -7.213 | eChemPortal
OC(Cn1ccnc1)c1ccc(Cl)cc1Cl (stereo unspecified) | – | -8.914 | eChemPortal
O=Cc1ccccc1C=O | 1,2-Benzenedicarboxaldehyde | -2.362 | PubChem, eChemPortal
CCCCCCCC(=O)SCCC[Si](OCC)(OCC)OCC | Octanethioic acid, S-[3-(triethoxysilyl)propyl] ester | -4.824 | eChemPortal
Cc1cc(-c2cc(C(C)(C)C)cc(C(C)(C)C)c2)c(O)c(-c2cc(C(C)(C)C)ccc2OCCCOc2ccc(C(C)(C)C)cc2-c2cc(C)cc(-c3cc(C(C)(C)C)cc(C(C)(C)C)c3)c2O)c1 | – | -7.206 | eChemPortal
O=[N+]([O-])c1cc(Cl)c(N=Nc2ccc(N(CCO)CCO)cc2Cl)c(Br)c1 | – | -6.259 | eChemPortal
CC(C)(C)C(=O)OC(=O)C(C)(C)C | Trimethylacetic anhydride | -0.357 | OCHEM
Cl.O=C(O)C1CCNCC1 | Isonipecotic acid hydrochloride | -8.862 | eChemPortal
C=CC(=O)OCCCCCC | Hexyl acrylate | -0.014 | eChemPortal
NCCCCCCCCCN | Nonamethylenediamine | -1.591 | eChemPortal
CCOCOC1CCCCCCCCCCC1 | (Ethoxymethoxy)cyclododecane | -2.654 | eChemPortal
CCCCCCCCCCCCCCCCCCCCCC(=O)OCCCCCCCCCCCCCCCCCC | Octadecyl docosanoate List Acronyms | -4.292 | eChemPortal
C=CC(C)(O)CCCC(C)C (stereo unspecified) | 1-Octen-3-ol, 3,7-dimethyl- | -0.727 | eChemPortal
O=C(c1ccccc1)c1ccc(O)c(O)c1O | 2,3,4-Trihydroxbenzophenone | -6.745 | eChemPortal
Cc1cc(O)c(C(C)(C)C)cc1C(C)CC(c1cc(C(C)(C)C)c(O)cc1C)c1cc(C(C)(C)C)c(O)cc1C (stereo unspecified) | – | -7.932 | eChemPortal
Cc1ccc(C2OC[C@@H]3OC(c4ccc(C)c(C)c4)O[C@H]([C@H](O)CO)[C@@H]3O2)cc1C (stereo partly drawn) | 1,3:2,4-Bis(3,4-dimethylbenzylidene)-D-sorbitol | -8.08 | eChemPortal
Cl.Cl.N[C@@H](CSSC[C@H](N)C(=O)O)C(=O)O | L-Cystine dihydrochloride | -11.54 | eChemPortal
COC(=O)CCc1cc(-n2nc3ccccc3n2)c(O)c(C(C)(C)C)c1 | – | -7.87 | eChemPortal
CCOC(=O)[C@@]12CCC[C@@H]1[C@@H]1CC[C@H]2C1 (relative stereo) | – | -1.957 | eChemPortal
O=C(OCC1CO1)c1ccc(C(=O)OCC2CO2)c(C(=O)OCC2CO2)c1 (stereo unspecified) | Triglycidyl trimellitate | -8.201 | eChemPortal
Cc1ccc2oc(=O)ccc2c1 | 6-Methyl coumarin | -3.291 | OCHEM

Excerpt, the final 4 entries:

| compound | name | vapor pressure (log10 mmHg) | via |
|---|---|---|---|
| COC(=O)CCc1cc(-n2nc3ccccc3n2)c(O)c(C(C)(C)C)c1 | – | -7.87 | eChemPortal |
| CCOC(=O)[C@@]12CCC[C@@H]1[C@@H]1CC[C@H]2C1 (relative stereo) | – | -1.957 | eChemPortal |
| O=C(OCC1CO1)c1ccc(C(=O)OCC2CO2)c(C(=O)OCC2CO2)c1 (stereo unspecified) | Triglycidyl trimellitate | -8.201 | eChemPortal |
| Cc1ccc2oc(=O)ccc2c1 | 6-Methyl coumarin | -3.291 | OCHEM |

Data: OPERA 2.9 data sets, kmansouri/OPERA on GitHub.